{
  "source": "patent US20170266266A1",
  "about": "“Functions of 55 Newfound Proteins and Their Medicinal Application in the Treatment and Prevention of Disease” (priority 2012, published 2017)",
  "molecules": {"B1": {"name": "AFOD RAAS 108: from A1AT from fraction IV (protein, UniProt P01009 25-418, looked up)", "Alpha-1-antitrypsin": "EDPQGDAAQKTDTSHHDQDHPTFNKITPNLAEFAFSLYRQLAHQSNSTNIFFSPVSIATAFAMLSLGTKADTHDEILEGLNFNLTEIPEAQIHEGFQELLRTLNQPDSQLQLTTGNGLFLSEGLKLVDKFLEDVKKLYHSEAFTVNFGDTEEAKKQINDYVEKGTQGKIVDLVKELDRDTVFALVNYIFFKGKWERPFEVKDTEEEDFHVDQVTTVKVPMMKRLGMFNIQHCKKLSSWVLLMKYLGNATAIFFLPDEGKLQHLENELTHDIITKFLENEDRRSASLHLPKLSITGTYDLKSVLGQLGITKVFSNGADLSGVTEEAPLKLSKAVHKAVLTIDEKGTEAAGAMFLEAIPMSIPPEVKFNKPFVFLMIEQNTKSPLFMGKVVNPTQK"}},
  "test_system": "SK-OV-3-luc ovarian cancer",
  "test": "Ovarian cancer survival in mice",
  "type": "in vivo",
  "source_text": "Ovarian cancer study has been conducted at Wuxi AppTec under Dr. Yong Cang and the study is still ongoing as of Aug. 4, 2013. However in order to show the comparison mean days of the death of the mice in each group to compare with the positive drug group which has 76.8 days.\nBioluminescent images of RAAS-20120628-SK-OV-3-luc for all groups.\nAt day 63 after ovarian cancer has started an experiment of Kieu Hoang AFCC TM by oral application of four mice left from the entire group. That means that by day 63 ovarian cancer has already developed. In the beginning we forced the mice to drink without water, therefore the mice died in early stage.",
  "data": [
    {"molecule": "B1", "values": [
      {"measurement": "Mean Survival Time", "setting": "ovarian cancer mice, group mean, study still ongoing", "result": 165.2, "unit": "days"},
      {"measurement": "mean days of the death (mean survival time)", "setting": "vehicle 128.5 days, study ongoing", "result": 165.2, "unit": "days"}
    ]}
  ]
}
